How the values were obtained:
Assay in all cases: 6-well plate assay, minimal inhibitory concentration
Type in all cases: cell-based
Conditions in all cases: 6-well agar plate; lowest concentration with no growth after seven days
[1] = system: Phanerochaete chrysosporium
Protocol: (§1) The minimal inhibitory concentration of fungicides against eight fungi was determined in 6-well microtiter plates. Minimal inhibitory concentration is defined as the lowest concentration at which no fungus growth is evident after seven days. A group of eight fungi were used in a screen to identify potential active ingredients to preserve wood. The eight fungi, their classification, and the growth media used to culture them are listed below:
(§2) Growth media were purchased from Difco (from Beckton Dickinson and Co., Sparks, Md.). The growth media were added to water to 2% w/v and autoclaved at 121° C. for 30 min. Autoclaved media were allowed to cool down to ˜50° C. Test chemicals were dissolved in DMSO (dimethyl sulfoxide) individually at 10 mg/mL to generate stock solutions. An appropriate amount of a stock solution was then added to the appropriate growth medium at 50° C. to make up the test media containing various concentrations of individual test chemicals. 10 mL of the medium was added to each well of a 6-well plate and allowed to solidify at room temperature. For each plate, the first well had no chemical, and the remaining five wells contained a particular test chemical at five different concentrations. Eight such plates were prepared for each chemical, using the eight media listed above for the eight test organisms.
(§3) After the media solidified and cooled, a plug (˜2 mm×2 mm) of agar growth medium with fresh grown mycelium from the appropriate fungal culture was used to inoculate each well. The plate was placed in an incubator, and the growth of the fungus monitored. After 4 to 7 days, the growth was scored manually.

Antrodia vaillantii = system: Antrodia vaillantii
Protocol: as §1, §2, §3

Postia placenta = system: Postia placenta
Protocol: as §1, §2, §3

Chaetomium globosum = system: Chaetomium globosum
Protocol: as §1, §2, §3

Irpex lacteus = system: Irpex lacteus
Protocol: as §1, §2, §3

Gloeophyllum trabeum = system: Gloeophyllum trabeum
Protocol: as §1, §2, §3

Trametes versicolor = system: Trametes versicolor
Protocol: as §1, §2, §3

CCOc1nc(C(Cl)(Cl)Cl)ns1 [Terrazole]
Effectiveness at Inhibiting Wood-Rotting Fungi, WR3 (minimal inhibitory concentration) [1]: 1 (“1” indicates effective inhibition at 1 ppm or less) | Effectiveness at Inhibiting Wood-Rotting Fungi, BR3 (minimal inhibitory concentration) (Antrodia vaillantii): 2 (“2” indicates inhibition at about 1-100 ppm) | Effectiveness at Inhibiting Wood-Rotting Fungi, BR1 (minimal inhibitory concentration) (Postia placenta): 3 (“3” indicates inhibition (if any) only at >100 ppm) | Effectiveness at Inhibiting Wood-Rotting Fungi, SR1 (minimal inhibitory concentration) (Chaetomium globosum): 3 (“3” indicates inhibition (if any) only at >100 ppm) | Effectiveness at Inhibiting Wood-Rotting Fungi, WR2 (minimal inhibitory concentration) (Irpex lacteus): 1 (“1” indicates effective inhibition at 1 ppm or less) | Effectiveness at Inhibiting Wood-Rotting Fungi, BR2 (minimal inhibitory concentration) (Gloeophyllum trabeum): 3 (“3” indicates inhibition (if any) only at >100 ppm) | Effectiveness at Inhibiting Wood-Rotting Fungi, WR1 (minimal inhibitory concentration) (Trametes versicolor): 1 (“1” indicates effective inhibition at 1 ppm or less)
